Shown are actives, neighbours in structure and some others; about 13% of the full set was active somewhere.
Sfp inh = blocks B. subtilis Sfp PPTase activity; Q9F4F7; Biochemical Sfp PPTase activity, qHTS; Potency, µM, inactives show max response, negative = inhibition, hits mostly inhibitors; 310,000 tested, 3.5% active; active means well fitted inhibition curve with a large enough effect; inconclusive means small, poorly fitted or top-dose-only effect, or another doubt; inactive means no such curve, though single readings can be large or run the other way;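 further: the enzyme is Sfp with the accession as filed and its product quenches rhodamine fluorescence; potency means the concentration at half of the fitted maximal effect; 0% = enzyme reaction without inhibitor and -100% = no enzyme wells; top concentration of the series not given in the record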
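Fluorescence-quenching assay: 15 nM Sfp-PPTase preincubated 15 min at room temperature with compound, then 5 uM rhodamine-CoA and 12.5 uM BHQ-2-labelled YbbR peptide added. Fluorescence (ex 525/em 598 nm) read at start and after 30 min; difference gives rate.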
miR-21 reporter = miR-21 reporter, rising signal | HeLa miR-21 FLuc reporter, luciferase, 48 h | Potency, µM (highest dose often 38.3 µM), for inactives: at the top dose reporter change, positive = more light | 340,000 tested, under 10 active | AID 2288; active = well fitted rising curve with a large enough effect; inconclusive = small, poorly fitted or top-dose-only effect; inactive = no such curve, though single readings can be large or run the other way;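 further: % of control where 0% means no effect; miR-21 action dims this reporter so a rising signal means less miR-21 action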
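HeLa cells endogenously expressing miR-21, stably carrying CMV-driven firefly luciferase with a downstream miR-21 binding site, 2000 cells/well. Titrations up to approximately 40 uM, 48 hours; luciferase luminescence read.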
G9a inh = blocks human histone lysine methyltransferase G9a | AID 504332 | Q96KQ7 | Potency, µM (top dose mostly 102 µM), for the others: top-dose activity, negative = inhibition, hits mostly inhibitors | 350,000 tested, 8.8% active | G9a H3K9 monomethylation, AlphaScreen, 2 h; further: potency means the concentration at half of the fitted maximal effect; on the % scale 0 is the no-effect control and ±100 the full control effect; nearly all actives have a fitted effect of over 75% in size
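AlphaScreen detection with an anti-monomethyl H3K9 antibody quantified product after a 2 h room-temperature reaction containing 500 nM biotinylated H3K9 peptide, 20 µM SAM and 20 nM enzyme, which had been preincubated 15 min with compound.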
Lamin A splicing = modulators of lamin A splicing; AID 1487; 200,000 tested, 0.01% active; HeLa LMNA splicing GFP/RFP minigene ratio, 48 h; Potency, µM (highest dose often 46.1 µM), for the others: top-dose ratio change, negative = inhibition, actives largely listed as inhibitors; active means well fitted inhibition curve with a large enough effect in the signal ratio, with a control signal flat, not every such curve was filed as active; inconclusive means small, poorly fitted or top-dose-only effect, or effect the other way, or a change in a side signal; the % refers to the signal ratio; further: potency means the concentration at half of the fitted maximal effect; on the % scale 0 is the no-effect control and ±100 the full control effect
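S3 HeLa stable clones carrying a lamin A-EGFP splicing minigene plus DsRed2 were seeded at 600 cells/well in Opti-MEM with 2% FBS, pin-dosed and incubated 48 h at 37°C. Acumen cytometry (488 nm) gave the GFP/RFP total-intensity ratio.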
KDM4E inh = inhibitors of human JMJD2E histone demethylase | B2RXH2 | JMJD2E catalytic domain, FDH-coupled NADH fluorescence (FDH is formaldehyde dehydrogenase) | Potency, µM (top dose mostly 57.1 µM), without a hit: at the highest dose activity change, negative = inhibition, actives largely listed as inhibitors | 230,000 tested, 1.6% active; active means well fitted inhibition curve with a large enough effect, not every such curve was filed as active; inconclusive means small, poorly fitted or top-dose-only effect, or another doubt; inactive means no such curve, though single readings can be large or run the other way;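 further: potency means the concentration at half of the fitted maximal effect; 0% = wells with enzyme and -100% = buffer wells without enzyme; nearly all actives have a fitted effect of over 50% in size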
ALDH1A1 inh = inhibitors of human aldehyde dehydrogenase 1A1; Purified ALDH1A1, NADH fluorescence, propionaldehyde substrate; Potency, µM (titrated, usually from 75.3 µM), for inactives: at the top dose activity, negative = inhibition, actives largely listed as inhibitors; 220,000 tested, 7.3% active; AID 1030; active means well fitted inhibition curve with a large enough effect, not every such curve was filed as active; inconclusive means small, poorly fitted or top-dose-only effect, or another doubt; inactive means no such curve, though single readings can be large or run the other way;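 further: potency means the concentration at half of the fitted maximal effect; plate controls were no enzyme wells and a reference inhibitor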
Starred values were filed as active, the others as inactive; ? = inconclusive; / = no result given; ! = not active in a repeat; [ ] = remark or other dose. Unless noted, the call rests on the fitted dose curve; in most records, active means well fitted curve in the direction sought with a large enough effect; inconclusive means small, poorly fitted or top-dose-only effect, or another doubt; inactive means no such curve, though single readings can be large; an effect the other way counts as inactive or inconclusive.

The first two compounds (preview)
Value order – Sfp inh	miR-21 reporter	G9a inh	Lamin A splicing	KDM4E inh	ALDH1A1 inh
COc1cc2[nH]c(=O)n(Cc3ccc(C(=O)N4CCN(c5ccc(Cl)cc5)CC4)cc3)c(=O)c2cc1OC
→ /	?	-43.3%[59 µM]	/	/	/
O=C(O)C[C@H]1NCc2cc3ccccc3nc21
→ /	/	/	/	/	7.7%[13.5 µM]

Results, from the first entry:
Value order – Sfp inh	miR-21 reporter	G9a inh	Lamin A splicing	KDM4E inh	ALDH1A1 inh
COc1cc2[nH]c(=O)n(Cc3ccc(C(=O)N4CCN(c5ccc(Cl)cc5)CC4)cc3)c(=O)c2cc1OC
→ /	?	-43.3%[59 µM]	/	/	/
O=C(O)C[C@H]1NCc2cc3ccccc3nc21
→ /	/	/	/	/	7.7%[13.5 µM]
COC[C@H]1OC(=O)c2coc3c2[C@@]1(C)C1=C(C3=O)[C@@H]2CCC(=O)[C@@]2(C)C[C@H]1OC(C)=O
→ 35.5µM*	/	5.01µM*	/	/	?
CCCCCC1CC(CC#CCN2CCOCC2)C(=O)O1 (stereo unspecified)
→ -5.1%	-6.8%	8.91µM*	1.8%	?	6.31µM*
CCCCCCn1c(O)c(C=NCCN2CCOCC2)c(=O)[nH]c1=O
→ 17.6%	-1.9%	-16.5%	-10.9%	13.4%	3.0%
Cc1c(N=Nc2c(O)[nH]c(=O)[nH]c2=O)c(=O)n(-c2ccccc2)n1C
→ 44.7µM*	-0.2%	?	-19.6%[46 µM]	3.55µM*	-90.2%
CCCN(CC1CC1)CC(O)c1ccccc1 (stereo unspecified)
→ -19.2%	-4.6%	11.2µM*	/	/	/
NC1CCc2cc(O)c(O)cc2C1 (stereo unspecified)
→ 39.8µM*	/	1.5µM*	?	?	7.94µM*!
Cc1noc(C)c1C(=O)N1CCC[C@@]2(CCN(CC(C)C)C2)C1
→ 24.1%	/	-0.2%[12.7 µM]	/	/	-6.7%
CCCCc1ccc(C(=O)O)nc1
→ 28.2µM*	/	5.97µM*!	?	10µM*	4.1%

Some entries already given, showing only Lamin A splicing, miR-21 reporter and ALDH1A1 inh:
| Compound | Lamin A splicing | miR-21 reporter | ALDH1A1 inh |
| --- | --- | --- | --- |
| CCCCCCn1c(O)c(C=NCCN2CCOCC2)c(=O)[nH]c1=O | -10.9% | -1.9% | 3.0% |
| Cc1c(N=Nc2c(O)[nH]c(=O)[nH]c2=O)c(=O)n(-c2ccccc2)n1C | -19.6%[46 µM] | -0.2% | -90.2% |

Remaining list, next part:
Value order – Sfp inh	miR-21 reporter	G9a inh	Lamin A splicing	KDM4E inh	ALDH1A1 inh
N#C/C(=C/c1ccc(O)c(O)c1)C(N)=S
→ /	/	7.52µM*	/	/	/
N#C/C(=C\c1ccc(O)c(O)c1)C(=O)NCCCNC(=O)/C(C#N)=C/c1ccc(O)c(O)c1
→ /	/	1.68µM*	?	3.55µM*	?
CN1CCC2(CC1)CCN(C(=O)Oc1ccccc1)CC2
→ 15.2%	/	4.3%[12.7 µM]	/	/	6.3%
Clc1ccc([C@@H](OCCN2CCCCC2)c2ccccc2)cc1
→ 21.5%	/	5.5%[21.5 µM]	?	8.2%[25.5 µM]	9.5%[20.9 µM]
C(=C\c1ccccc1)/CN1CCN(CCOC(c2ccccc2)c2ccccc2)CC1
→ 56.2µM*	/	11.2µM*	/	/	-4.9%
Cc1ncc(C[n+]2csc(CCOP(=O)(O)O)c2C)c(N)n1
→ 13.9%	/	?	/	/	/
COc1ccc(OC)c(-n2c(O)c(C=Nc3c(C)n(C)n(-c4ccccc4)c3=O)c(=O)[nH]c2=S)c1
→ 44.7µM*	-1.0%	/	0.8%[46 µM]	-24.1%	?
COc1ccc(C2CC(c3c(O)n(CCc4ccccc4)c(=O)[nH]c3=O)=NN2)cc1OC (stereo unspecified)
→ 34.4%	2.5%	56.2µM*	/	?	/
O=[N+]([O-])CCO
→ /	/	8.8%[0.501 µM]	/	/	17.8µM*
C=C(C)[C@H]1O[C@H]2CC[C@@]3(C)[C@@](O)(CC[C@H]4[C@@H]5OC(C)(C)[C@H]6C[C@@H]7C(=C)Cc8c(Cl)cc9[nH]c(c5c9c8[C@@]76O)[C@@]43C)[C@]23O[C@@H]3[C@H]1O
→ 16.3%	/	13.0%[59 µM]	/	/	-0.4%
CCOP(=O)(OCC)/C(=N/OC(=O)c1ccc(Cl)cc1Cl)C(N)=O
→ 2.2%	-10.5%	50.1µM*	/	-5.0%	/
O=C(OCc1cc(=O)n2nc(C3CC3)sc2n1)c1ccc(NC(=O)c2ccccc2Cl)cc1
→ /	?	19.3%[59 µM]	?	/	/
CN1C(=O)C(=Cc2ccc(N3CCOCC3)o2)C(=O)N(C)C1=S
→ 6.4%	-0.5%	-4.3%	10.0%[46 µM]	-0.8%	2.0%
CN1C(=O)/C(=C\c2ccc(N3CCCCC3)o2)C(=O)NC1=S
→ -14.0%	-37.5%	31.6µM*	-5.9%	-3.6%	?
C=CCN1C(=O)/C(=C\c2ccc(N3CCOCC3)o2)C(=O)NC1=S
→ 56.2µM*	1.1%	8.91µM*	13.3%	-1.6%	17.8µM*
CN1C(=O)/C(=C/c2ccc(N3CCCCCC3)o2)C(=O)NC1=S
→ 50.1µM*	-65.0%	?	9.5%	0.8%	?
O=C1CC2OCC=C3CN4CC[C@]56c7ccccc7N1[C@H]5[C@H]2C3C[C@H]46 (stereo partly specified)
→ 5.1%	/	/	/	0.7%	-6.9%
C[C@]12CCC(=O)C=C1CCc1ccc(O)cc12
→ -0.1%	/	/	?	11.3%	?
COC(=O)c1ccc(Cl)c(NC(=O)CN2CCN(Cc3ccccc3)CC2)c1
→ 4.3%	0.7%	11.2µM*	3.2%	-3.0%	?
Cc1cccc(-n2c(-c3ccc([N+](=O)[O-])cc3)nc3ccccc3c2=O)c1
→ -4.1%	-3.9%	20.1%[59 µM]	-10.6%	-0.2%	?
Cc1ccccc1-n1c(-c2ccc([N+](=O)[O-])cc2)nc2ccccc2c1=O
→ 2.4%	0.0%	70.8µM*	0.8%	8.7%	7.94µM*
COc1ccc(-n2c(/C=C/c3ccc(O)c(O)c3)nc3ccccc3c2=O)cc1
→ -22.6%	12.5%	31.6µM*	/	/	/
O=c1c2ccccc2nc(-c2ccc([N+](=O)[O-])cc2)n1-c1ccccc1
→ 8.1%	-3.5%	-37.9%[59 µM]	-7.0%	-0.1%	3.16µM*
COc1cc(/C=C/c2nc3ccccc3c(=O)n2-c2ccc(O)cc2)ccc1O
→ -1.9%	17.8%	-14.7%	/	/	/
COc1ccc(-c2nc3ccccc3c(=O)n2-c2ccc(OC)cc2)cc1
→ -0.6%	-10.8%	-2.9%[0.501 µM]	/	2.7%	11.2µM*
C[C@@H]1CC[C@H]2[C@H](C)[C@H]3CC[C@@]4(O)[C@@H]5CC(=O)[C@H]6CC(=O)CC[C@]6(C)[C@H]5C[C@H]4[C@@H]3CN2C1
→ 33.8%	/	/	/	/	/
O=c1c2ccccc2nc(-c2ccco2)n1-c1ccccc1
→ 6.0%	3.1%	?	-18.8%	2.5%	-6.4%
O=c1c2ccccc2nc(-c2ccco2)n1-c1ccncc1
→ 3.8%	2.1%	0.5%[59 µM]	?	-28.1%	28.2µM*
O=P(O)(O)c1ccccc1OCCOCCOCCOCCOc1ccccc1P(=O)(O)O
→ 4.5%	-41.9%	10µM*	/	-14.0%	-1.7%
CCCOc1ccccc1NP(=O)(Oc1ccccc1)Oc1ccccc1
→ -10.7%	-4.2%	68.2%	/	/	/
COc1cc(/C=C2\C(=O)NC(=O)N(c3ccccc3)C2=O)cc(OC)c1O
→ 22.4µM*	-0.8%	?	9.1%	-28.6%	?
COc1cc(/C=C2\C(=O)NC(=O)N(c3ccccc3)C2=O)c([N+](=O)[O-])cc1OC
→ 39.8µM*	-6.4%	10µM*	-10.8%[46 µM]	65.3%	?
CC(C)CC(N)C1(c2ccc(Cl)cc2)CCC1 (stereo unspecified)
→ 12.9%	/	/	/	4.3%	0.2%
C[C@H]1CC[C@H]2NCCN[C@H]2C1
→ 100µM*	2.4%	/	/	2.1%	/
CCN(CC)CCO[C@H]1CC[C@@]2(C)C(=CC[C@@H]3[C@H]2CC[C@]2(C)C(=O)CC[C@H]32)C1
→ 10.5%	/	-1.5%[12.7 µM]	/	-8.2%	-6.3%
CC(N)(COP(=O)(O)Oc1ccccc1)C(=O)O (stereo unspecified)
→ ?	/	26.5%[59 µM]	/	/	?
O=NN(CCCl)C(=O)NCCCl
→ 5.3%	/	19.6%[12.7 µM]	-17.5%	8.8%	3.16µM*!

Source: PubChem
